Ab-95 light chain CDR variants: yeast mating affinities

The measurements come from Engelhart et al. 2022 (doi:10.1038/s41597-022-01779-4) through the FLAb antibody collection.

Binding partner: SARS-CoV-2 spike HR2 peptide, sequence PDVDLGDISGINAS.

The variants keep the heavy chain, the linker and the frameworks of Ab-95 (scFv order VH, a 15-residue (Gly4Ser)3 linker, VL).
VH: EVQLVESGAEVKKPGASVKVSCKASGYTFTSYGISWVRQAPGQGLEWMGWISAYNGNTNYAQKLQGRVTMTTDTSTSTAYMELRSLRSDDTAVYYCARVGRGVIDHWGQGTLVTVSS
VL: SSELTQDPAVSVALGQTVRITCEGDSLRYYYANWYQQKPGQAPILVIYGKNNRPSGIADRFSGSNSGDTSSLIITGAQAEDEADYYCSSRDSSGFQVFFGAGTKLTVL

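The starting antibody came from a phage panning campaign against this peptide. In library AAYL52, one, two or three CDR residues were substituted; doubles and triples were drawn at random. Affinity was read by AlphaSeq, a pooled yeast mating assay with surface-displayed partners. The frequency of each diploid, read from paired DNA barcodes, reflects how well the two displayed proteins bind. Read counts were normalised to the haploid input and turned into Kd by a linear fit to BCL2-family pairs of known affinity, for each replicate. There are three technical replicates.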

Each variant is given by its three light chain CDRs, as the data file delimits them; those of the parent are EGDSLRYYYAN, GKNNRPS, SSRDSSGFQVF. Scale: log10 of Kd in nM, estimated from mating counts; low values are strong binders. Where no diploid with the target was found in that replicate, the entry reads "nd": below detection, most likely a poor binder, though not proof of it. Three control strains display no target. For library AAYL52, 28% of the pairings with them gave a signal, with a median of 3.91 and one signal in twenty below 2.90, so weak values seen in few replicates may be background. Also given: how often the same scFv was detected with the empty control strains, with their mean in brackets.

CDR-L1 | CDR-L2 | CDR-L3 | replicates, log10 nM | signal with controls
EGDSLRYYYAN | GKNNRPH | SSRDSSGFQSF | 3.15 / 3.23 / 3.65 | 4 of 9 (4.30)
EGDSLRYYYAN | GLNNRPS | ESRDSAGFQVF | 3.28 / 3.40 / 3.11 | 4 of 9 (3.85)
EGGSERYYYAN | GKNNRPS | SSRDVSGFQVF | 3.72 / 4.07 / nd | 1 of 9 (4.30)
EHDSLRYQYAN | GKNNQPS | SSRDSSGFQVF | 2.83 / 3.37 / 1.95 | 2 of 9 (2.90)
EFDSLRAYYAN | VKNNRPS | SSRDSSGFQVF | nd / 4.50 / nd | 3 of 9 (3.92)
VGDSARYYYAN | GKNNRPS | SSRDSSGFQPF | 3.99 / nd / nd | 4 of 9 (3.71)
EDDKLRYYYAN | GKNKRPS | SSRDSSGFQVF | nd / nd / 3.74 | 3 of 9 (3.61)
EGDSLRYYYAN | GKNVIPS | SSRDYSGFQVF | nd / nd / nd | 0 of 9
EGDSLRYYYDN | DKNNRPS | LSRDSSGFQVF | nd / nd / nd | 1 of 9 (3.23)
EGDSLRRYYAN | GKNNRPR | SSRDSWGFQVF | nd / nd / nd | 0 of 9
EGDSLRYHYAN | GKNNRPS | SSRDSSGDQVG | nd / 3.71 / nd | 0 of 9
EGESLRYFYAN | GKNNRDS | SSRDSSGFQVF | 3.21 / 3.77 / 3.58 | 2 of 9 (3.78)
EGDSLRYYYAN | YKNTRPS | SSRDSSGFQVR | 5.31 / nd / nd | 1 of 9 (4.02)
EGDSLRYYYAN | GKTNRPS | SSLDNSGFQVF | 2.82 / 2.82 / 3.71 | 1 of 9 (3.24)
EGDSLRYYYAN | GKNNRPS | FSRDFSGSQVF | 4.53 / nd / nd | 2 of 9 (3.72)
EGKSLRYYYAN | GKNNRPS | SCRDSSGFQAF | 2.36 / 2.55 / 1.86 | 4 of 9 (3.47)
EIDSLRYYYAN | GKNNRPS | SSRDSSGFQVN | nd / nd / nd | 0 of 9
EGDSLRYTYAN | GKNNRPS | SISDSSGFQVF | nd / 4.11 / nd | 3 of 9 (3.85)
ENDSLRYEYAN | GKNNRPS | SSRDSSFFQVF | 2.81 / 3.00 / 2.93 | 4 of 9 (4.00)
EGDSLRYYYAN | GKNDRPS | SWRDSSGFCVF | 2.34 / 2.51 / 2.53 | 1 of 9 (3.41)
EGPSLRYYYAN | GKNNRPS | TSRDSSGYQVF | 3.98 / nd / nd | 1 of 9 (3.21)
EGDSLLYYYAN | GKNNRPI | YSRDSSGFQVF | 2.80 / 3.70 / 3.58 | 1 of 9 (3.59)
EGDSLRGYYAN | GKNNRPS | SSRGSSGDQVF | 1.75 / 1.46 / 0.98 | 3 of 9 (4.19)
PGDSLRYYYAN | GKNCRPS | TSRDSSGFQVF | 5.20 / nd / nd | 0 of 9
EGDSRRYNYAN | GKNNRPS | SSQDSSGFQVF | 3.21 / 2.30 / 2.77 | 4 of 9 (3.05)
RGDSLRNYYAN | GKNNRVS | SSRDSSGFQVF | 2.14 / 1.94 / 1.69 | 2 of 9 (4.73)
EGDSLRYMYAP | GKNNRPS | SSRDSSIFQVF | 3.81 / 4.75 / nd | 5 of 9 (4.09)
EGDSLRYYYAN | GKNNRPS | KSRDSSGFQLF | 1.94 / 1.92 / 2.37 | 3 of 9 (3.90)
LGDSLRYYGAQ | GKNNRPS | SSRDSSGFQVF | 2.75 / 2.55 / 2.54 | 3 of 9 (4.24)
EGDSLRDYYCN | GKNNRPS | SSRDSSEFQVF | 2.88 / 2.82 / 2.52 | 7 of 9 (3.85)
EGLSKRYYYAN | GKNNRPS | SSRRSSGFQVF | 3.64 / nd / nd | 2 of 9 (4.15)
EGDSLRYYYAN | GRNNSPS | SSRDSSGGQVF | 3.64 / 4.40 / 4.06 | 6 of 9 (4.65)
EGDFLRYYYDN | GKNNRPS | SSRVSSGFQVF | nd / 4.45 / nd | 4 of 9 (3.72)
RGDSLRYYYAN | AKNERPS | SSRDSSGFQVF | 2.39 / 2.52 / 2.33 | 1 of 9 (4.85)
EGDSLRYYYAN | GKNNRPS | SSRWSVGFTVF | 2.56 / 2.63 / 2.90 | 3 of 9 (4.28)
EGDSLRYYYDN | GKNNRPS | VSRDSSDFQVF | 3.86 / 4.42 / 3.35 | 5 of 9 (3.71)
EGDSLRYYYAN | MKHNRPS | SSIDSSGFQVF | 3.80 / nd / nd | 0 of 9
EGDPLRYYYAN | GKHNRPS | SSRDSSGFQVS | 4.14 / 2.65 / 3.35 | 0 of 9
EGDSLRNYYAN | GMNNRPS | SSRDSSSFQVF | 2.55 / 2.98 / 1.99 | 3 of 9 (4.07)
EGDSLRVYYAN | GKNFRPL | SSRDSSGFQVF | 5.48 / nd / nd | 1 of 9 (4.19)
EGDSLRYYYAN | LKNNRPS | SKRDSSGFQKF | nd / nd / nd | 0 of 9
EGDSVRYYYAN | GKNNRPY | SSRDGSGFQVF | 4.25 / 3.50 / 3.51 | 2 of 9 (3.45)
EGDSLRYYYAN | GNNNRPS | SSRDSSGFQVF | 2.14 / 1.86 / 1.60 | 1 of 9 (4.08)
EGDSSRYYYAN | GKNNRPS | SSRDSSGWHVF | 3.50 / 4.44 / 4.25 | 3 of 9 (3.86)